In this test the target is Gag-Pol polyprotein (Human immunodeficiency virus type 1 group M subtype B (isolate HXB2), UniProt P04585). Kind of test: HIV-1 RT RNase H inhibitor potency, dose response, biochemical, probe assessment (AID 652). Conditions: pH 8; 23 °C.

In the case of `COc1cc(C=CC(=O)CC(=O)C=Cc2ccc(O)c(OC)c2)ccc1O` [(1E,6E)-1,7-bis(4-hydroxy-3-methoxyphenyl)hepta-1,6-diene-3,5-dione], the IC50 was found to be 10.3 µM.

The values above are taken from BindingDB's records for doi:10.7270/Q2H70D5W (University of Pittsburgh, 2007).
